Source: US11401279B2, “Pyrido[3,2-d]pyrimidine compounds as immunomodulators” (Incyte Corporation, priority 2019, dated 2022)

By UniProt entry, the sequences of proteins in these tests, tags left out. Residues count along the entry.
UniProt Q9NZQ7, 19-238 limits assumed: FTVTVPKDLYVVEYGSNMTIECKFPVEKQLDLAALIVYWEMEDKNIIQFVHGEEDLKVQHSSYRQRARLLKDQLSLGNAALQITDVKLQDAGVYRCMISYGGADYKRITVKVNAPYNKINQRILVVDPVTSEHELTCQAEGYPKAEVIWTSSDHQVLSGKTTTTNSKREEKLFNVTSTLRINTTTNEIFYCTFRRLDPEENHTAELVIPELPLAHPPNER
UniProt Q9NZQ7, 19-290 limits assumed: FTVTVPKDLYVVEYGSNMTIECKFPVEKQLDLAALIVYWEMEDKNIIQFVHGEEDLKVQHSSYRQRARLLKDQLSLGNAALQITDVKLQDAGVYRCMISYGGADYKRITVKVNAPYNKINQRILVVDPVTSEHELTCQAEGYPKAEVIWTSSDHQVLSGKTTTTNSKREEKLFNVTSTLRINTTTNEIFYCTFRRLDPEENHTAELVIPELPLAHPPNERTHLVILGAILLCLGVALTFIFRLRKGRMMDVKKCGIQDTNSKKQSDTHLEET

Assays:
PD-1/PD-L1 = PD-1/PD-L1 (Homo sapiens (Human), UniProt Q9NZQ7); assay: Homogeneous Time-Resolved Fluorescence (HTRF) PD-1/PD-L1 binding assay; settings: read-out: HTRF binding IC50; recombinant human PD-1 and PD-L1
Procedure: The assays were conducted in a standard black 384-well polystyrene plate with a final volume of 20 μL. Inhibitors were first serially diluted in DMSO and then added to the plate wells before the addition of other reaction components. The final concentration of DMSO in the assay was 1%. The assays were carried out at 25° C. in the PBS buffer (pH 7.4) with 0.05% Tween-20 and 0.1% BSA. Recombinant human PD-L1 protein (19-238) with a His-tag at the C-terminus was purchased from AcroBiosystems (PD1-H5229). Recombinant human PD-1 protein (25-167) with Fc tag at the C-terminus was also purchased from AcroBiosystems (PD1-H5257). PD-L1 and PD-1 proteins were diluted in the assay buffer and 10 μL was added to the plate well. Plates were centrifuged and proteins were preincubated with inhibitors for 40 minutes. The incubation was followed by the addition of 10 μL of HTRF detection buffer supplemented with Europium cryptate-labeled anti-human IgG (PerkinElmer-AD0212) specific for Fc and anti-His antibody conjugated to SureLight®-Allophycocyanin (APC, PerkinElmer-AD0059H). After centrifugation, the plate was incubated at 25° C. for 60 min. before reading on a PHERAstar FS plate reader (665 nm/620 nm ratio). Final concentrations in the assay were—3 nM PD1, 10 nM PD-L1, 1 nM europium anti-human IgG and 20 nM anti-His-Allophycocyanin. IC50 determination was performed by fitting the curve of percent control activity versus the log of the inhibitor concentration using the GraphPad Prism 5.0 software.

[1] = system: U2OS/PD-L1 cells and Jurkat-PD-1-SHP cells; assay: Src homology region 2 domain-containing phosphatase (SHP) assay; settings: read-out: SHP IC50; PathHunter chemiluminescence, 2 hours
Procedure: U2OS/PD-L1 cells (DiscoveRx Corporation) were maintained in McCoy's 5A medium with addition of 10% FBS, 0.25 μg/mL Puromycin. After removing the culture media, the cell medium was replaced with assay medium (RPMI1640 medium with 1% FBS). The U2OS/PD-L1 cells were then added in 384-well black clear bottom assay plate (CELLCOAT® Tissue Culture Plates, Greiner Bio-One) at 5000 cells per well in 20 μL assay medium. Test compounds were prepared by serial dilution in DMSO and 125 nL compound were first transferred to the 384 REMP plate well (Thermofisher) by ECHO liquid handler (Labcyte) followed with addition of 27.5 μL assay medium. 5 µL/well compounds in the assay medium were transferred to the cell plate with 0.05% DMSO in the final assay at 0.25 μM. Jurkat-PD-1-SHP cells (DiscoveRx Corporation) were cultured in RPMI1640 medium supplemented with 10% FBS, 250 μg/mL Hygromycin B, 500 μg/mL G418. After the replacement of culture media with assay medium, 5,000 Jurkat-PD-1-SHP cells in 20 μL were dispensed into each well. The assay plate was incubated at 37° C., 5% CO2 for 2 hours before 2.5 μL PathHunter reagent 1 (DiscoveRx Corporation) were added to each well. The assay plate was shaken for 1 min at 350 rpm in the dark followed with addition of 10 μL PathHunter reagent 2 (DiscoveRx Corporation). Chemiluminescent signal was recorded with TopCount reader (Perkin Elmer) after incubation at room temperature for 1 hour. Wells with DMSO were served as the positive controls and wells containing no cells were used as negative controls. IC50 determination was performed by fitting the curve of percentage of control activity versus the log of the compound concentration using the GraphPad Prism 6.0 software.

[2] = system: PD-L1 aAPC/CHO-K1 cells and Jurkat-PD-1-NFAT effector cells; assay: Nuclear factor of activated T-cells (NFAT) assay; settings: read-out: NFAT EC50; luminescence, 24 hours
Procedure: PD-L1 aAPC/CHO-Klcells (Promega) were maintained in F-12 medium with addition of 10% FBS, 200 μg/mL Hygromycin B, 250 μg/mL Geneticin (G418). Jurkat-PD-1-NFAT effector cells (Promega) were cultured in RPMI 1640 medium supplemented with 10% FBS, 100 μg/mL Hygromycin B, 500 μg/mL G418. The culture media of PD-L1 aAPC/CHO-K1 cells were first replaced with assay medium (RPMI1640 medium with 1% FBS). The PD-L1 aAPC/CHO-Klcells were then added in a white 384-well white clear bottom assay plate (CELLCOAT® Tissue Culture Plates, Greiner Bio-One) at 8000 per well in 10 μL assay medium. Test compounds were prepared by serial dilution in DMSO and 0.8 μL test compounds in DMSO were first transferred to the 384 REMP plate well (Thermofisher) by PlateMate Plus (Thermofisher) followed with addition of 50 μL plating medium. 5 μL compounds in the assay medium were transferred to the cells with 0.4% DMSO in the final assay at 2 μM. After removing the culture media, 10,000 Jurkat-PD-1-NFAT effector cells in 5 μL assay medium was dispensed into each well. The assay plate was incubated at 37° C., 5% CO2 for 24 hours. After the assay plate was equilibrated to room temp for 15 minutes, 20 μL/well of Bio-Glo™ reagent (Promega) were added. After 8 minutes incubation at room temperature, luminescence was read at with Pherastar microplate reader (BMG Labtech). The fold of induction (FOI) was calculated based on the ratio of luminescence normalized to the DMSO wells within each assay plate. The maximum percentage of induction was reported based on the ratio between the highest FOI of each compound and the maximum FOI of control compound within each assay plate. Wells with DMSO were served as the negative controls and wells containing control compound with the highest FOI were used as positive controls. EC50 determination was performed by fitting the curve of percent control activity versus the log of the compound concentration using the GraphPad Prism 6.0 software.

PD-L1 = PD-L1 (Homo sapiens (Human), UniProt Q9NZQ7); assay: PD-L1 whole blood internalization assay; settings: read-out: Whole Blood IC50; PD-L1 internalization in human whole blood, CD14+ cells, interferon γ, 24 hour
Procedure: To determine PD-L1 internalization in human whole blood, normal human blood (Biological Specialty Corp, Colmar. Pa.) was incubated in the presence or absence of a concentration range of test compounds and 1 ng/mL human interferon γ (R&D Systems Inc. Minn. […] Blood was then stained with PD-L1 (MIH1, eBioscience; or BD Biosciences San Jose, Calif.), CD14 (Life Technologies, Carlsbad, Calif.) for 30 minutes in the dark at room temperature. Whole Blood/red cells were lysed/fixed (lysis buffer BD Biosciences) for 5 minutes at 37° C. in the dark and then centrifuged at 1600 RPM for 5 minutes. Cells were resuspended in Stain Buffer (BD Bioscience, San Jose, Calif.) and transferred into 96 well round bottom plates (Corning). Cells were gated on CD14+(BD Biosciences) and PD-L1 expression determined by mean fluorescence intensity (MFI) (BD LSRFortessa™ X-20). IC50 determination was performed by fitting the curve of compound percent inhibition versus the log of the compound concentration using the GraphPad Prism 7.0 software.

[3] = In vivo pharmacokinetics in rats; settings: rat, cassette dosing; for Cl / Vss / t1/2: 1.0 mg/kg IV; for AUC0-inf / Cmax / F: 3.0 mg/kg PO
Procedure: For in vivo pharmacokinetic experiments, test compounds were administered to male Sprague Dawley rats or male and female Cynomolgus monkeys intravenously or via oral gavage. For intravenous (IV) dosing, test compounds were dosed at 0.5 to 1 mg/kg using a formulation of 10% dimethylacetamide (DMAC) in acidified saline via IV bolus for rat and 5 min or 10 min IV infusion for monkey. For oral (PO) dosing, test compounds were dosed at 1.0 to 3.0 mg/kg using 5% DMAC in 0.5% methylcellulose in citrate buffer (pH 3.5). Blood samples were collected at predose and various time points up to 24 hours postdose. All blood samples were collected using EDTA as the anticoagulant and centrifuged to obtain plasma samples. The plasma concentrations of test compounds were determined by LC-MS methods. The measured plasma concentrations were used to calculate PK parameters by standard noncompartmental methods using Phoenix® WinNonlin software program (version 7.0, Pharsight Corporation).
In rats and monkeys, cassette dosing of test compounds were conducted to obtain preliminary PK parameters.

SMILES	IC50 (PD-1/PD-L1) [nM]	IC50 [1] [nM]	EC50 [2] [nM]	IC50 (PD-L1) [nM]	Cl [3] [mL/min/kg]	Vss [3] [L/kg]	t1/2 [3] [h]	AUC0-inf [3] [µM·h]	Cmax [3] [nM]	F [3] [%]
Cc1c(Nc2nccc3cc(CN4CC[C@H](O)C4)cnc23)cccc1-c1cccc(NC(=O)c2nc3c(n2C)CCN(C[C@H]2CC[C@@H](C(=O)O)CC2)C3)c1Cl	2.1	14	35	93						
Cc1c(Nc2nccc3cc(CN4CC[C@@](C)(O)C4)cnc23)cccc1-c1cccc(NC(=O)c2nc3c(n2C)CCN(C[C@H]2CC[C@@H](C(=O)O)CC2)C3)c1Cl	1.8	6.7	21	65						
Cc1c(NC(=O)c2nc3c(n2C)CCN(CC[C@H]2CC[C@H](C(=O)O)CC2)C3)cccc1-c1cccc(Nc2nccc3cc(CN4CC[C@@H](O)C4)cnc23)c1C	2.5	5.3	27	116						
Cc1c(NC(=O)c2nc3c(n2C)CCN(CC[C@H]2CC[C@H](C(=O)O)CC2)C3)cccc1-c1cccc(Nc2nccc3cc(CN4CC[C@@H](O)C4)cnc23)c1Cl	< 1.5	5.7	23	84						
Cc1c(Nc2nccc3cc(CN4CCCC4)cnc23)cccc1-c1cccc(NC(=O)c2nc3c(n2C)CCN(C[C@H]2CC[C@@H](C(=O)O)CC2)C3)c1Cl	1.5	5.5	43	196						
Cn1c(C(=O)Nc2cccc(-c3cccc(Nc4nccc5cc(CN6CC[C@@H](O)C6)cnc45)c3Cl)c2Cl)nc2c1CCN(CC[C@H]1CC[C@H](C(=O)O)CC1)C2	1.8	6.7	18	98						
Cc1c(Nc2ncnc3cc(CN4CC[C@@H](O)C4)cnc23)cccc1-c1cccc(NC(=O)c2nc3c(n2C)CCN(C[C@H]2CC[C@H](C(=O)O)CC2)C3)c1Cl	2.5	2.5	37	169						
Cc1c(Nc2nccc3cc(CN4CC[C@@H](O)C4)cnc23)cccc1-c1cccc(NC(=O)c2nc3c(n2C)CCN(CC[C@H]2CC[C@H](C(=O)O)CC2)C3)c1Cl	2.7	5.1	15	67	25	3.82	2.55	0.205	29	7
Cc1c(Nc2nccc3cc(CN4CC[C@@](C)(O)C4)cnc23)cccc1-c1cccc(NC(=O)c2nc3c(n2C)CCN(CC[C@H]2CC[C@H](C(=O)O)CC2)C3)c1Cl	2.2	6	24	90						
Cc1c(Nc2nccc3cc(CN[C@H]4CCC[C@@H]4O)cnc23)cccc1-c1cccc(NC(=O)c2nc3c(n2C)CCN(C[C@H]2CC[C@H](C(=O)O)CC2)C3)c1Cl	1.5	5.4	138	471						
Cc1c(Nc2nccc3cc(CN4CC[C@@H](O)C4)cnc23)cccc1-c1cccc(NC(=O)c2nc3c(n2C)CCN(C[C@H]2CC[C@@H](C(=O)O)CC2)C3)c1Cl	2	5.6	18	85	23.2	3.73	2.78	0.412	61	14
Cc1c(Nc2nccc3cc(CN4CC[C@@H](O)C4)cnc23)cccc1-c1cccc(NC(=O)c2nc3c(n2C)CCN(CC[C@H]2CC[C@@H](C(=O)O)CC2)C3)c1Cl	2.5	6.9	26	92						
